Assay: Solubility in water of solid particulate material (descriptive)
Assay type: physicochemical
Settings: description in composition table

With Zinc Gluconate as the substance, how does the Solubility read?
The Solubility was “Solubility- soluble in water”.

From patent US20250339374A1, “BONDED MICROPARTICULATES PREPARATION AND APPLICATIONS THEREOF” (Venkor Corporation, priority 2022, published 2025)
